Source: patent US20130095189A1, “COMPOSITION AND METHOD OF PHYTONUTRIENTS FOR METABOLIC PROGRAMMING EFFECTS” (priority 2011, published 2013)

Assays:
[1] = test system: 2 year old (CCD-1092sk) normal primary human skin fibroblast cells; assay: WST-1 cell viability / cytotoxicity assay, 2 year old cell model; settings: 24 hrs, up to 100 μM
[2] = test system: Adult (142Br) normal primary human skin fibroblast cells; format: cell-based; settings: adult cell model; 24 hrs; up to 100 μM
Description: (§1) The resulting values are used for data analysis.

[3] = test system: 1 month old (CCD-32sk) normal primary human skin fibroblast cells; format: cell-based; settings: 1 month old cell model; 24 hrs; up to 100 μM
Description: as §1

Measured: change in cell viability compared to control

catechin
No other significant changes: all assays above
